In PubChem BioAssay (NCI):
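Results reflect a 48-hour exposure of cells in 96-well plates to compound at five concentrations. GI50 = concentration required for 50% inhibition of growth. TGI: total growth inhibition.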

Legend:
Assay in all cases: inhibition of tumour cell growth, NCI panel, 48 h
786-0 renal = system: 786-0 renal
A498 renal = system: A498 renal
A549 NSCLC = system: A549 NSCLC
ACHN renal = system: ACHN renal
BT-549 breast = system: BT-549 breast
CAKI-1 renal = system: CAKI-1 renal
CCRF-CEM leukemia = system: CCRF-CEM leukemia
COLO 205 colon = system: COLO 205 colon
DU-145 prostate = system: DU-145 prostate
EKVX NSCLC = system: EKVX NSCLC
HCC-2998 colon = system: HCC-2998 colon
HCT-116 colon = system: HCT-116 colon
HCT-15 colon = system: HCT-15 colon
HL-60(TB) leukemia = system: HL-60(TB) leukemia
HOP-62 NSCLC = system: HOP-62 NSCLC
HOP-92 NSCLC = system: HOP-92 NSCLC
HS 578T breast = system: HS 578T breast
HT29 colon = system: HT29 colon
IGROV1 ovarian = system: IGROV1 ovarian
K-562 leukemia = system: K-562 leukemia
KM12 colon = system: KM12 colon
LOX IMVI melanoma = system: LOX IMVI melanoma
M14 melanoma = system: M14 melanoma
MALME-3M melanoma = system: MALME-3M melanoma
MCF7 breast = system: MCF7 breast
MDA-MB-231 breast = system: MDA-MB-231 breast
MDA-MB-435 = system: MDA-MB-435
MDA-N = system: MDA-N
MOLT-4 leukemia = system: MOLT-4 leukemia
NCI-H226 lung = system: NCI-H226 lung
NCI-H23 lung = system: NCI-H23 lung
NCI-H322M lung = system: NCI-H322M lung
NCI-H460 lung = system: NCI-H460 lung
NCI-H522 lung = system: NCI-H522 lung
NCI/ADR-RES ovarian = system: NCI/ADR-RES ovarian
OVCAR-3 ovarian = system: OVCAR-3 ovarian
OVCAR-4 ovarian = system: OVCAR-4 ovarian
OVCAR-5 ovarian = system: OVCAR-5 ovarian
OVCAR-8 ovarian = system: OVCAR-8 ovarian
PC-3 prostate = system: PC-3 prostate
RPMI-8226 leukemia = system: RPMI-8226 leukemia
RXF 393 renal = system: RXF 393 renal
SF-268 CNS = system: SF-268 CNS
SF-295 CNS = system: SF-295 CNS
SF-539 CNS = system: SF-539 CNS
SK-MEL-2 melanoma = system: SK-MEL-2 melanoma
SK-MEL-28 melanoma = system: SK-MEL-28 melanoma
SK-MEL-5 melanoma = system: SK-MEL-5 melanoma
SK-OV-3 ovarian = system: SK-OV-3 ovarian
SN12C renal = system: SN12C renal
SNB-19 CNS = system: SNB-19 CNS
SNB-75 CNS = system: SNB-75 CNS
SW-620 colon = system: SW-620 colon
T-47D breast = system: T-47D breast
TK-10 renal = system: TK-10 renal
U251 CNS = system: U251 CNS
UACC-257 melanoma = system: UACC-257 melanoma
UACC-62 melanoma = system: UACC-62 melanoma
UO-31 renal = system: UO-31 renal

CC1=C[C@H]2O[C@@H]3[C@H](O)[C@@H](O)[C@](C)(C2(COC(=O)CCl)CC1)[C@@]31CO1 (stereo partly specified)
GI50 (786-0 renal): 0.0331 µM | TGI (786-0 renal): 0.142 µM | GI50 (A498 renal): 0.0165 µM | TGI (A498 renal): 0.0393 µM | GI50 (A549 NSCLC): 0.0293 µM | TGI (A549 NSCLC): 0.297 µM | TGI (ACHN renal): 3.01 µM | GI50 (BT-549 breast): 0.0181 µM | TGI (BT-549 breast): 0.0507 µM | GI50 (CAKI-1 renal): 0.0581 µM | TGI (CAKI-1 renal): 0.491 µM | GI50 (CCRF-CEM leukemia): < 0.01 µM | GI50 (COLO 205 colon): 0.0152 µM | TGI (COLO 205 colon): 0.0383 µM | TGI (DU-145 prostate): 3.84 µM | GI50 (EKVX NSCLC): 0.0459 µM | TGI (EKVX NSCLC): 0.283 µM | GI50 (HCC-2998 colon): 0.0143 µM | TGI (HCC-2998 colon): 0.0355 µM | GI50 (HCT-116 colon): 0.0121 µM | TGI (HCT-116 colon): 0.0253 µM | GI50 (HCT-15 colon): 0.252 µM | TGI (HCT-15 colon): 1.01 µM | GI50 (HL-60(TB) leukemia): 0.0118 µM | TGI (HL-60(TB) leukemia): 0.0729 µM | GI50 (HOP-62 NSCLC): 0.092 µM | TGI (HOP-62 NSCLC): 1.91 µM | GI50 (HOP-92 NSCLC): 0.0247 µM | TGI (HOP-92 NSCLC): 0.0832 µM | GI50 (HS 578T breast): 0.0266 µM | TGI (HS 578T breast): 0.0646 µM | GI50 (HT29 colon): 0.0242 µM | TGI (HT29 colon): 0.121 µM | GI50 (IGROV1 ovarian): 0.0215 µM | TGI (IGROV1 ovarian): 0.0944 µM | GI50 (K-562 leukemia): 0.0163 µM | GI50 (KM12 colon): 0.0383 µM | TGI (KM12 colon): 0.233 µM | GI50 (LOX IMVI melanoma): < 0.01 µM | TGI (LOX IMVI melanoma): 0.0105 µM | GI50 (M14 melanoma): 0.013 µM | TGI (M14 melanoma): 0.0284 µM | GI50 (MALME-3M melanoma): 0.0111 µM | TGI (MALME-3M melanoma): 0.0206 µM | GI50 (MCF7 breast): < 0.01 µM | GI50 (MDA-MB-231 breast): 0.0857 µM | TGI (MDA-MB-231 breast): 0.324 µM | GI50 (MDA-MB-435): 0.0151 µM | TGI (MDA-MB-435): 0.045 µM | GI50 (MDA-N): 0.0231 µM | TGI (MDA-N): 0.107 µM | GI50 (MOLT-4 leukemia): 0.0192 µM | TGI (MOLT-4 leukemia): 1.2 µM | GI50 (NCI-H226 lung): 0.0182 µM | TGI (NCI-H226 lung): 0.0644 µM | GI50 (NCI-H23 lung): 0.0161 µM | TGI (NCI-H23 lung): 0.0456 µM | GI50 (NCI-H322M lung): 0.0892 µM | TGI (NCI-H322M lung): 1.11 µM | GI50 (NCI-H460 lung): 0.0109 µM | TGI (NCI-H460 lung): 0.0339 µM | GI50 (NCI-H522 lung): < 0.01 µM | TGI (NCI-H522 lung): 0.0158 µM | GI50 (NCI/ADR-RES ovarian): 0.058 µM | TGI (NCI/ADR-RES ovarian): 0.505 µM | GI50 (OVCAR-3 ovarian): 0.0171 µM | TGI (OVCAR-3 ovarian): 0.0663 µM | GI50 (OVCAR-4 ovarian): 0.0163 µM | TGI (OVCAR-4 ovarian): 0.0644 µM | GI50 (OVCAR-5 ovarian): 0.178 µM | TGI (OVCAR-5 ovarian): 0.656 µM | GI50 (OVCAR-8 ovarian): 0.0193 µM | TGI (OVCAR-8 ovarian): 0.106 µM | GI50 (PC-3 prostate): 0.0188 µM | TGI (PC-3 prostate): 0.142 µM | GI50 (RPMI-8226 leukemia): 0.0177 µM | GI50 (RXF 393 renal): 0.0249 µM | TGI (RXF 393 renal): 0.146 µM | GI50 (SF-268 CNS): 0.0406 µM | TGI (SF-268 CNS): 0.179 µM | GI50 (SF-295 CNS): 0.0206 µM | TGI (SF-295 CNS): 0.189 µM | GI50 (SF-539 CNS): 0.0107 µM | TGI (SF-539 CNS): 0.0167 µM | GI50 (SK-MEL-2 melanoma): 0.0296 µM | TGI (SK-MEL-2 melanoma): 0.148 µM | GI50 (SK-MEL-28 melanoma): 0.0138 µM | TGI (SK-MEL-28 melanoma): 0.0377 µM | GI50 (SK-MEL-5 melanoma): 0.0124 µM | TGI (SK-MEL-5 melanoma): 0.0302 µM | GI50 (SK-OV-3 ovarian): 0.0921 µM | TGI (SK-OV-3 ovarian): 1.19 µM | GI50 (SN12C renal): 0.0371 µM | TGI (SN12C renal): 0.193 µM | GI50 (SNB-19 CNS): 0.0133 µM | TGI (SNB-19 CNS): 0.0704 µM | GI50 (SNB-75 CNS): 0.0193 µM | TGI (SNB-75 CNS): 0.0699 µM | GI50 (SW-620 colon): 0.0315 µM | TGI (SW-620 colon): 0.486 µM | GI50 (T-47D breast): 0.0161 µM | TGI (T-47D breast): 0.0597 µM | GI50 (TK-10 renal): 0.0599 µM | TGI (TK-10 renal): 0.215 µM | TGI (U251 CNS): 1.35 µM | GI50 (UACC-257 melanoma): 0.0217 µM | TGI (UACC-257 melanoma): 0.105 µM | GI50 (UACC-62 melanoma): 0.175 µM | TGI (UACC-62 melanoma): 0.438 µM | GI50 (UO-31 renal): 0.12 µM | TGI (UO-31 renal): 0.441 µM
